The values that follow come from US20250368678A1, “19-NOR-C3,3-DISUBSTITUTED C21-AZACYCLO-S[…] AND METHOD FOR USING SAME” (SHANDONG LUYE PHARMACEUTICAL CO., LTD., priority 2022, published 2025).

Each structure is given as a SMILES string.

Data set [1] in a line: In vitro liver microsomal stability assay, rat. The class given is in vitro ADME. The protocol:
(§1) 1) Preparation of working solutions of test samples: The test samples were diluted with acetonitrile to 100 M.
(§2) 2) Preparation of a working solution of liver microsomes: liver microsomes were diluted with 100 mM phosphate-buffered saline to 0.56 mg/mL.
(§3) 3) Preparation of a working solution of reduced nicotinamide adenine dinucleotide (NADPH): A proper amount of NADPH was weighed out and diluted with phosphate-buffered saline to 20 mM, and an equal volume of a 60 mM MgCl2 solution was added.
(§4) 4) Preparation of a stop solution: Tolbutamide was diluted with acetonitrile to 20 ng/mL, serving as a stop solution containing an internal standard.
(§5) 1) Incubation anti-adsorption EP tubes were prepared and labeled with species, test/control sample, time points (0, 5, 10, 20, 30, 60 min, Blank60, and NCF60), etc.
(§6) 2) 2 L of test or control sample working solution, diluted with acetonitrile to 100 M, and 178 L of liver microsome working solution were added to each tube. For the Blank60 tube, 2 L of acetonitrile was added instead of a test sample. The tubes were pre-incubated in a 37° C. water bath for about 10 min, with each sample tested in triplicate.
(§7) 3) After the pre-incubation was complete, 20 L of NADPH working solution was added to each tube except for the 0 min and NCF60 tubes to start reactions, and 20 L of phosphate-buffered saline (containing 30 mM MgCl2) was added to the NCF60 tube. In the incubation system, the final concentrations of the test and control samples were 1 M, the final concentration of liver microsomes was 0.5 mg/mL, the final concentration of NADPH was 1 mM, and the final concentration of MgCl2 was 3 mM.
(§8) 4) For the 0 min sample, 600 L of stop solution was added before adding the NADPH working solution. After each sample was incubated for its respective time, 600 L of stop solution was added to stop the reaction.
(§9) 5) After the reaction was stopped, each sample was vortexed for 30 s and then centrifuged at 13,500 rpm for 10 min. 100 L of the supernatant was transferred to an EP tube, and 100 L Milli-Q water was added. The mixture was well mixed by vortexing and analyzed by LC-MS/MS.
(§10) 6) Testosterone and dextromethorphan were used as positive control samples under the same conditions to assess the stability and reliability of the system.
(§11) Parameters of the test samples, including their half-lives, intrinsic clearance rates in liver microsomes, and hepatic intrinsic clearance rates, were calculated based on the percentage of test sample remaining.

Data set [2] can be described thus: In vitro liver microsomal stability assay, human. The format is in vitro ADME. How it is done:
as §1, §2, §3, §4, §5, §6, §7, §8, §9, §10, §11

For `C[C@@]1(O)CC[C@H]2[C@H](CC[C@@H]3[C@@H]2CC[C@]2(C)[C@@H](C(=O)Cn4ncn(-c5cccc(F)c5)c4=O)CC[C@@H]32)C1`, in data set [1] (Rat liver microsomes), the “CLint(mic)” value is 486 μL/min/mg protein, the “Clint(liver)” value was found to be 875 mL/min/kg and the T1/2 worked out at 2.9 min. In data set [1] (Rat liver microsomes 0.5 mg/mL, NADPH), the “Remaining amount % at 60 min” value is listed as 5.61%. In data set [2] (Human liver microsomes), the “CLint(mic)” value came out at 20 μL/min/mg protein, the “Clint(liver)” value is reported as 28 mL/min/kg and the T1/2 was determined as 69.3 min. The “Remaining amount % at 60 min” value in data set [2] (Human liver microsomes 0.5 mg/mL, NADPH) came to 53.59%.
